The values below are quoted from earlier work in US7235583B1, “Fatty acid-anticancer conjugates and uses thereof” (Luitpold Pharmaceuticals, Inc.,, priority 1999, dated 2007).

For this series the following is noted: infusion in humans; cited from earlier work.

Regarding `CC(=O)O[C@H]1C(=O)[C@@]2(C)[C@H]([C@H](OC(=O)c3ccccc3)[C@]3(O)C[C@H](OC(=O)[C@H](O)[C@@H](NC(=O)c4ccccc4)c4ccccc4)C(C)=C1C3(C)C)[C@]1(OC(C)=O)CO[C@@H]1C[C@@H]2O` [paclitaxel, reference compound], the “maximum tolerated dose (MTD)” value is on record as 225 mg/m^2.
